Values of other authors in US9182414B2, “Methods for identifying a GLP-1 secretagogue” (Arena Pharmaceuticals, Inc., priority 2005, dated 2015).

The chains behind the UniProt entries cited, without tags or fusion partners.
UniProt P27487, whole entry: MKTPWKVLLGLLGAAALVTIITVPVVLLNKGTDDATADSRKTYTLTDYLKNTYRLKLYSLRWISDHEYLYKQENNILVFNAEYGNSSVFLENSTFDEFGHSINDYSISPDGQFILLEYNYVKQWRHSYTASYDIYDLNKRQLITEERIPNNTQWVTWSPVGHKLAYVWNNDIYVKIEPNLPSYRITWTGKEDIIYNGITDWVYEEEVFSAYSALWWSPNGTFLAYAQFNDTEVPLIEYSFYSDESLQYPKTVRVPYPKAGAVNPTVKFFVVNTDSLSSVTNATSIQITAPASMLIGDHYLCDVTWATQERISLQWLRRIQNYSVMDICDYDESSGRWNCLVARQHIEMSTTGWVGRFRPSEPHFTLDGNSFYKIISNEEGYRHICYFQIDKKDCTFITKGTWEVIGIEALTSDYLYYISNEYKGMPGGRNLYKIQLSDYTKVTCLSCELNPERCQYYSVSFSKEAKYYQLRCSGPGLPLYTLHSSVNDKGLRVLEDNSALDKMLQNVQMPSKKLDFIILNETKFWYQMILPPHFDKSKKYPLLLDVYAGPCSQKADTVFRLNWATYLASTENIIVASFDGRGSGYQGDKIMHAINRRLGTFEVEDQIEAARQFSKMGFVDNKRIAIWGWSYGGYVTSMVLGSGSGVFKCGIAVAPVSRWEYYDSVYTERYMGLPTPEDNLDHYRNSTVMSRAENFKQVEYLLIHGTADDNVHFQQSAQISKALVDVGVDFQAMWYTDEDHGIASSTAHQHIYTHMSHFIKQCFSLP

Key:
DPP-IV [1] = target: T1, DPP-IV (Homo sapiens, UniProt P27487)
DPP-IV [2] = target: T1, DPP-IV; settings: in vivo

In the case of “1-[2-[5-cyanopyridin-2-yl)amino]ethylamino]acetyl-2-cyano-(S)-pyrrolidine [NVP-DPP728]”, the “selectivity as DPP-IV inhibitor” value (DPP-IV [1]) is listed as “selective DPP-IV inhibitor” and the oral activity (DPP-IV [2]) is listed as “orally active”.
